Literature values in paper PMC5465209 (Scientific Reports, 2017).

System: secretion of insulin
Conditions: cited from earlier work
Excerpt: An important mechanism whereby calcineurin promotes the activation of T cells and the induction of cytokine-related genes is largely attributed to a family of transcriptional regulators that are referred to as NFAT. The immunosuppressants cyclosporine A and FK506, which are used clinically to prevent transplant rejection, inhibit the activity of calcineurin phosphatase on all its protein substrates, including NFAT[1], [2]. Although these drugs have revolutionized transplant therapy, their use is associated with the progressive loss of the renal function, hypertension, hyperglycemia, neurotoxic ...

CC[C@H](C)[C@H](NC(=O)[C@@H](NC(=O)[C@@H]1CCCN1C(=O)[C@H](Cc1c[nH]cn1)NC(=O)[C@@H]1CCCN1C(=O)CNC(=O)[C@H](C)NC(=O)[C@H](CCSC)NC(=O)CNC(=O)CNC(=O)[C@H](CCCNC(=N)N)NC(=O)[C@H](CCCNC(=N)N)NC(=O)[C@H](CCCNC(=N)N)NC(=O)[C@H](CCCNC(=N)N)NC(=O)[C@H](CCCNC(=N)N)NC(=O)[C@H](CCCNC(=N)N)NC(=O)[C@H](CCCNC(=N)N)NC(=O)[C@H](CCCNC(=N)N)NC(=O)[C@H](CCCNC(=N)N)NC(=O)[C@H](CCCNC(=N)N)NC(=O)[C@@H](N)CCCNC(=N)N)C(C)C)C(=O)N[C@H](C(=O)N[C@H](C(=O)N[C@H](C(=O)NCC(=O)N1CCC[C@H]1C(=O)N[C@@H](Cc1c[nH]cn1)C(=O)N[C@@H](CCC(=O)O)C(=O)N[C@@H](CCC(=O)O)C(=O)O)[C@@H](C)O)[C@@H](C)CC)C(C)C [11R-VIVIT]
Secretion of insulin: did not affect the secretion of insulin
